The values below come from US20230028658A1, “EXPANDED DOSAGE REGIMENS FOR INTEGRIN INHIBITORS” (Pliant Therapeutics, Inc., priority 2021, published 2023).

The assay concerns Type I Collagen gene Col1a1 expression. The assay is described as follows: Precision cut lung slices of mice under acute bleomycin exposure, Col1a1 expression. It is filed as cell-based, Mice (C57BL/6). As for the experimental part: Mice (C57BL/6) were administered 3 U/kg of bleomycin (Teva Pharmaceuticals; North Wales, Pa.) on day 0 via oropharyngeal aspiration while under anesthesia. On day 14, precision cut lung slices were obtained. Following euthanization, 2% low gelling temp agarose was injected into the mouse lungs via the trachea. […] The lobes were then subjected to precision slicing to obtain samples for culture using a microtome (Compresstome VF-300-0Z, Precisionary; Greenville, N.C.). Individual slices were distributed in a multiwell culture plate and cultured for 3 days under control (DMSO) and test compound conditions.

As for `Cc1cc(C)n(-c2cccc([C@H](CC(=O)O)CN3CC[C@H](CCc4ccc5c(n4)NCCC5)C3)c2)n1` [first pan-αv small molecule inhibitor, (3S)-3-[3-(3,5-dimethyl-1H-pyrazol-1-yl)phenyl]-4-{(3S)-3-[2-(5,6,7,8-tetrahydro-1,8-naphthyridin-2-yl)ethyl]-1-pyrrolidinyl}butanoic acid], the “Type I Collagen gene Col1a1 expression” value is “reduced Type I Collagen gene Col1a1 expression”.
